Results: patent publication US20230042095A1 (AstraZeneca / MedImmune, published 2023)

Protein sequences, listed by entry. Tags and fused reporters are not part of them. Residues count along the entry.
UniProt P15018, 23-202 limits assumed: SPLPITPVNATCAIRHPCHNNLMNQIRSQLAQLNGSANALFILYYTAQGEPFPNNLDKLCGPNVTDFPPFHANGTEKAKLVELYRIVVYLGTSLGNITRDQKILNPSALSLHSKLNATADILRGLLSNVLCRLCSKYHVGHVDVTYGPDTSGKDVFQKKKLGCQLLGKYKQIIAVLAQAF

Target: T1, human LIF (source not stated) (human, UniProt P15018 23-202)
T1 construct: also called hLIF; recombinant human LIF protein
Test: SPR (Biacore 2002), hLIF amine-coupled to chip, antibody as analyte, Langmuir 1:1 fit

Row | Kd [nM] | Binder
1 | 0.054 | H1L3 (humanized 5D8 variant) (antibody, V domains shown, also called D (H1L3)) VH: EVQLVESGGGLVKPGGSLKLSCAASGFTFSHAWMHWVRQAPGKGLEWVAQIKAKSDDYATYYAESVKGRFTISRDDSKNTLYLQMNSLKTEDTAVYYCTCWEWDLDFWGQGTLVTVSS VL: DIVMTQTPLSLSVTPGQPASISCRSSQSLLDSDGHTYLNWLLQKPGQPPQLLIYSVSNLESGVPNRFSGSGSGTDFTLKISRVEAEDVGLYYCMQATHAPPYTFGGGTKVEIKR
2 | 0.136 | H2L3 (humanized 5D8 variant) (antibody, V domains shown, also called H (H2L3)) VH: QVQLQESGGGLVKPGGSLRLSCAASGFTFSHAWMHWVRQAPGKGLEWVGQIKAKSDDYATYYAESVKGRFTISRDDSKNTLYLQMNSLKTEDTAVYYCTCWEWDLDFWGQGTMVTVSS VL: DIVMTQTPLSLSVTPGQPASISCRSSQSLLDSDGHTYLNWLLQKPGQPPQLLIYSVSNLESGVPNRFSGSGSGTDFTLKISRVEAEDVGLYYCMQATHAPPYTFGGGTKVEIKR
